Earlier results in patent publication US20190111064A1 (Interstice Therapeutics, LLC, priority 2017, published 2019).

Details: FNB guideline; children aged 9 and older and adults

## vitamin D
  upper limit (UL): 4,000 IU
